Most compounds without a hit are left out; they make up all but 2.2% or so of the library.
S100A4 inh HTS: inhibitors of S100A4-myosin IIA peptide binding, primary screen, biochemical, fluorescence polarization, TAMRA-MyoIIA peptide; Protein S100-A4 (Homo sapiens), P26447; inhibition, % at 10.7 µM; 360,000 tested, 0.14% active;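 active means mean inhibition of at least 70% across replicates, with every replicate also reaching that level; inconclusive means mean inhibition reaches 70% but some replicates fall short; inactive means mean inhibition below 70%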
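Test system: S100A4 monomer protein; Medium: HEPES pH 7.2 with CaCl2, KCl, NaCl, DTT, Triton; Probe or stimulus: TAMRA-labelled myosin IIA heavy-chain peptide probe, 5 nM; Doses: one dose per compound; Times: polarization read 5 min after assay mix addition, stable 5–60 min; Benchmarks: neutral control DMSO, positive control TFP.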
PDI inh: inhibitors of human PDI, primary screen, biochemical, turbidity, single point, plate reader; inhibition, % at 10 µM; PDI insulin aggregation turbidity, A650, 90 min; 350,000 tested, 0.052% active; Protein disulfide-isomerase (Homo sapiens), P07237;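 active means mean inhibition across replicates of 30% or more, whatever share of single replicates reach that level; inconclusive means mean inhibition below 30% while every single replicate reaches 30%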
SIRT5 block: SIRT5 desuccinylase inhibitors, primary screen, biochemical, fluorescence imaging, single point, set 5; NAD-dependent protein deacylase sirtuin-5, mitochondrial (Homo sapiens), Q9NXA8; Purified SirT5, succinyl-peptide AMC, trypsin-coupled fluorescence; inhibition, % at 15 µM; 330,000 tested, 1.1% active; AID 652115, 2013; in the data active means inhibition above about 15%; inconclusive means no clear call, values can overlap the other calls
FGF22 binding: binders of human FGF22 protein, primary screen, FGF22 synaptogenesis inhibitor project, biophysical, thermal shift, single point; Fibroblast growth factor 22 (Homo sapiens), Q9HCT0; recombinant FGF22 thermal shift, SYPRO orange fluorescence; percent of sucrose octasulfate shift, DMSO zero; activity (Tm shift, normalised), % at 9.99 µM; 340,000 tested, 1.5% active;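 active means mean Tm shift, scaled 0 neutral to 100 positive control, at about 1.3% or above, every replicate too, limit read from the data; inconclusive means no clear call, values can overlap the other calls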
ERp5 block: inhibitors of ERp5-driven insulin aggregation, primary screen, biochemical, turbidity, absorbance 650 nm, single point. 90 min. inhibition, % at 9.99 µM. 350,000 tested, 0.05% active;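 active means mean replicate inhibition above about 25%, with every replicate also reaching it, limit read from the data, passing the limit was not always enough; inconclusive means only one of those two criteria met; inactive means neither criterion met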
UUG fidelity: alters start codon recognition fidelity in yeast. S. cerevisiae UUG-firefly luciferase reporter, luminescence/redox ratio. activity score, % at 18.7 µM. 0.13% of 350,000 active. AID 602363;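 active = replicate mean at a twofold rise or more, about +100% in these data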;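 also: firefly luciferase made from a UUG start codon reports start codon fidelity; reporter light over untreated wells divided by growth signal over untreated wells; some hits fall short of that in this replicate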
Large screens that a line does not name were inactive; ! = not confirmed by another sample.

CC=Cc1ccc2n(c1=O)C[C@H]1[C@H](CO)[C@@H](C(=O)NCC3CC3)[C@@H]2N1Cc1ccncc1 (mixture of isomers)	none (no result: PDI inh, UUG fidelity)
COC(=O)c1ccccc1S(=O)(=O)N1CCC(C(=O)NCc2ccccn2)CC1	FGF22 binding 43.0 (no result: SIRT5 block)
O=C(NCc1ccccn1)C1CCN(S(=O)(=O)c2ccccc2C(F)(F)F)CC1	none
NS(=O)(=O)c1cccc(NC(=O)CSc2n[nH]c(-c3ccccc3Br)n2)c1	FGF22 binding 1.9
O=C(c1cccc(F)c1)N1CCCC(C(=O)N2CCCCC2)C1 (stereo unspecified)	SIRT5 block 22.5
O=C(c1cccc(F)c1)N1CCCCN2[C@H](C1)[C@H](c1ccc(-c3ccccc3)cc1)[C@@H]2CO	ERp5 block 28.4 (no result: PDI inh)
C[C@@H](O)C#Cc1ccc([C@@H]2[C@H]3CN(C(=O)c4cccc(F)c4)CCCCN3[C@H]2CO)cc1	SIRT5 block 23.2 (no result: S100A4 inh HTS, PDI inh)
O=C(c1cccc(F)c1)N1CCCCN2[C@H](CO)[C@@H](c3ccc(-c4ccc(F)cc4)cc3)[C@H]2C1	none (no result: PDI inh)
COCC(=O)Nc1ccc2c(c1)C(=O)N(C)[C@H]1CC[C@@H](CC(=O)NCCc3ccccc3)O[C@H]1CO2	none (no result: PDI inh)
C[C@@H]1CN([C@H](C)CO)C(=O)c2cc(NC(=O)Cc3ccccc3)ccc2O[C@@H](C)CCCCO[C@@H]1CN(C)S(=O)(=O)c1ccccc1	none (no result: PDI inh)
CCN1C(=O)[C@H]2[C@@H](c3ccc(-c4ccc(OC)cc4)cc3)N3CCC[C@@]3(C(=O)OC)[C@H]2C1=O	none (no result: SIRT5 block)
CCN1C(=O)[C@@H]2[C@@H](c3ccc(-c4ccc(OC)cc4)cc3)N3CCC[C@@]3(C(=O)OC)[C@@H]2C1=O	FGF22 binding 43.9
CNc1ccc(C2(O)C(=O)c3ccccc3C2=O)cc1	FGF22 binding 43.0
CN(C)c1ccc(C2(O)C(=O)c3ccccc3C2=O)cc1	PDI inh inconclusive
C=CCn1c(CNC(=O)c2ccccc2F)nnc1SCc1nc2ccccc2c(=O)[nH]1	FGF22 binding 43.1
O=C(CCc1ccccc1)OCC(=O)c1ccc(Br)cc1	FGF22 binding 43.3 (no result: UUG fidelity)
N/C(=N\OC(=O)CCc1ccccc1)c1ccc(Br)cc1	none
COc1cc2c(c3ccccc13)CCCC2=O	FGF22 binding 43.2 (no result: SIRT5 block)
O=C(C[C@@H]1CC[C@@H](NC(=O)c2cccc(F)c2)[C@@H](CO)O1)NCc1ccc(Oc2ccccc2)cc1	none (no result: PDI inh)
CCNC(=O)OCc1cn(-c2ccccc2)nn1	FGF22 binding 43.6 (no result: UUG fidelity)
COc1ccc(NC(=O)C(c2ccccc2)c2ccccc2)cn1	FGF22 binding 43.2 (no result: UUG fidelity)
CC(=O)Nc1ccc(NC(=O)C(c2ccccc2)c2ccccc2)cc1	none
CCS(=O)(=O)Nc1ccc2c(c1)C(=O)N(C)[C@@H]1CC[C@@H](CC(=O)Nc3ccccc3)O[C@@H]1CO2	none (no result: PDI inh)
O=C(COC(=O)/C=C/c1ccc(F)cc1)NCc1ccco1	FGF22 binding 43.4
Cc1ccc(C(=O)OCC(=O)NCc2cccs2)s1	none
CCN(c1ccc(NC(=O)COC(=O)c2ccc(C)s2)cc1)C(C)C	FGF22 binding 43.1
Cc1ccc(C(=O)OCC(=O)NCc2ccco2)s1	FGF22 binding 44.1 (no result: UUG fidelity)
C#CCNC(=O)C1=C[C@@H](c2ccccc2)C[C@@H](OCCCCO)O1	FGF22 binding 1.7!
C#CCNC(=O)C1=C[C@@H](c2ccc(C#C)cc2)C[C@@H](OCCCCO)O1	none (no result: S100A4 inh HTS, SIRT5 block, FGF22 binding, ERp5 block)
CN(C)C(=O)[C@H]1[C@H](CO)[C@H]2Cn3c(ccc(-c4cccc(F)c4)c3=O)[C@H]2N1C(=O)c1ccccn1	none (no result: PDI inh, UUG fidelity)
CO[C@H]1CN(C)C(=O)c2cc(NC(=O)Nc3ccc(C(F)(F)F)cc3)ccc2OC[C@H](C)NC[C@@H]1C	none (no result: PDI inh, UUG fidelity)
COc1ccc(S(=O)(=O)N(C)C[C@@H]2OCCCC[C@H](C)Oc3ccc(NS(=O)(=O)c4ccc(Cl)cc4)cc3C(=O)N([C@@H](C)CO)C[C@H]2C)cc1	SIRT5 block 20.8 (no result: PDI inh, UUG fidelity)
COc1ccc(S(=O)(=O)Nc2ccc3c(c2)C(=O)N([C@H](C)CO)C[C@H](C)[C@@H](CN(C)S(=O)(=O)c2ccc(Cl)cc2)OCCCC[C@H](C)O3)cc1	none (no result: PDI inh)
COc1ccc(S(=O)(=O)N(C)C[C@H]2OCCCC[C@H](C)Oc3ccc(NS(=O)(=O)c4ccc(Cl)cc4)cc3C(=O)N([C@H](C)CO)C[C@H]2C)cc1	SIRT5 block 22.1 (no result: PDI inh, UUG fidelity)
COc1ccc(S(=O)(=O)Nc2ccc3c(c2)C(=O)N([C@@H](C)CO)C[C@@H](C)[C@@H](CN(C)S(=O)(=O)c2ccc(Cl)cc2)OCCCC[C@H](C)O3)cc1	SIRT5 block 20.7 (no result: PDI inh, FGF22 binding)
O=C(C[C@H]1C[C@H]2c3cc(NS(=O)(=O)c4ccc(F)cc4)ccc3O[C@H]2[C@@H](CO)O1)NCc1ccc(Oc2ccccc2)cc1	none (no result: PDI inh, UUG fidelity)
COc1cccc(CN(C)C[C@@H]2OCc3ccccc3-c3c(n(C)c4ccccc34)C(=O)N([C@H](C)CO)C[C@@H]2C)c1	none (no result: PDI inh, FGF22 binding, UUG fidelity)
Cc1cc(/C=C2\SC(=S)N(C)C2=O)c(C)n1-c1ccc(O)cc1	PDI inh 74.8 (no result: UUG fidelity)
Cc1cc(/C=C2/SC(=S)N(c3ccc([N+](=O)[O-])cc3)C2=O)c(C)n1-c1cccnc1	FGF22 binding 43.4 (no result: UUG fidelity)
O=C(C[C@@H]1C[C@@H]2c3cc(NC(=O)Nc4ccccc4)ccc3O[C@@H]2[C@H](CO)O1)NCc1cccc(F)c1	none (no result: PDI inh)
N[C@H]1CC[C@H](CCn2cc(C3CC3)nn2)O[C@@H]1CO	none (no result: PDI inh, FGF22 binding, UUG fidelity)
COc1ccc(CCCc2nnc(SCc3nc4ccccc4c(=O)[nH]3)n2C)cc1C	FGF22 binding 42.9
Cc1cc(S(=O)(=O)Nc2ccc(C(=O)NCC3(N4CCCCC4)CCCCC3)cc2)ccc1F	SIRT5 block 21.5
COc1ccc2c3c(n(C)c2c1)[C@H](CO)N(C(=O)Nc1ccc(F)cc1)CC31CCN(C(=O)CC2CC2)CC1	none (no result: PDI inh, UUG fidelity)
COc1ccc2c3c(n(C)c2c1)[C@H](CO)N(CC1CC1)CC31CN(Cc2nccs2)C1	none (no result: PDI inh, UUG fidelity)
COC(=O)c1oc2ccccc2c1NC(=O)c1ccccc1O	FGF22 binding 43.2
NS(=O)(=O)c1ccc(NC(=O)COC(=O)c2cnccn2)cc1	FGF22 binding 43.0
COc1ccc(OC)c(NC(=O)COC(=O)C2CCCCC2)c1	FGF22 binding 44.5 (no result: SIRT5 block)
COc1ccc(OC)c(NC(=O)COC(=O)C2CCC2)c1	none
NS(=O)(=O)c1ccc(NC(=O)COC(=O)CCC2CCCC2)cc1	none
NS(=O)(=O)c1ccc(NC(=O)COC(=O)C2CCCCC2)cc1	FGF22 binding 43.5 (no result: UUG fidelity)

From PubChem
